Measurements reported in PubChem BioAssay AID720704 (The Scripps Research Institute Molecular Screening Center, 2013).
The list shows a part of the results, in another mix than the full data. Calls of active or inactive are those of the source. Cut-off read from the data, not from the text of the source: active = inhibition above about 11%; inactive = the rest.

Chains of the proteins cited; added tags and fusions are not shown.
UniProt Q01970, whole entry, looked up: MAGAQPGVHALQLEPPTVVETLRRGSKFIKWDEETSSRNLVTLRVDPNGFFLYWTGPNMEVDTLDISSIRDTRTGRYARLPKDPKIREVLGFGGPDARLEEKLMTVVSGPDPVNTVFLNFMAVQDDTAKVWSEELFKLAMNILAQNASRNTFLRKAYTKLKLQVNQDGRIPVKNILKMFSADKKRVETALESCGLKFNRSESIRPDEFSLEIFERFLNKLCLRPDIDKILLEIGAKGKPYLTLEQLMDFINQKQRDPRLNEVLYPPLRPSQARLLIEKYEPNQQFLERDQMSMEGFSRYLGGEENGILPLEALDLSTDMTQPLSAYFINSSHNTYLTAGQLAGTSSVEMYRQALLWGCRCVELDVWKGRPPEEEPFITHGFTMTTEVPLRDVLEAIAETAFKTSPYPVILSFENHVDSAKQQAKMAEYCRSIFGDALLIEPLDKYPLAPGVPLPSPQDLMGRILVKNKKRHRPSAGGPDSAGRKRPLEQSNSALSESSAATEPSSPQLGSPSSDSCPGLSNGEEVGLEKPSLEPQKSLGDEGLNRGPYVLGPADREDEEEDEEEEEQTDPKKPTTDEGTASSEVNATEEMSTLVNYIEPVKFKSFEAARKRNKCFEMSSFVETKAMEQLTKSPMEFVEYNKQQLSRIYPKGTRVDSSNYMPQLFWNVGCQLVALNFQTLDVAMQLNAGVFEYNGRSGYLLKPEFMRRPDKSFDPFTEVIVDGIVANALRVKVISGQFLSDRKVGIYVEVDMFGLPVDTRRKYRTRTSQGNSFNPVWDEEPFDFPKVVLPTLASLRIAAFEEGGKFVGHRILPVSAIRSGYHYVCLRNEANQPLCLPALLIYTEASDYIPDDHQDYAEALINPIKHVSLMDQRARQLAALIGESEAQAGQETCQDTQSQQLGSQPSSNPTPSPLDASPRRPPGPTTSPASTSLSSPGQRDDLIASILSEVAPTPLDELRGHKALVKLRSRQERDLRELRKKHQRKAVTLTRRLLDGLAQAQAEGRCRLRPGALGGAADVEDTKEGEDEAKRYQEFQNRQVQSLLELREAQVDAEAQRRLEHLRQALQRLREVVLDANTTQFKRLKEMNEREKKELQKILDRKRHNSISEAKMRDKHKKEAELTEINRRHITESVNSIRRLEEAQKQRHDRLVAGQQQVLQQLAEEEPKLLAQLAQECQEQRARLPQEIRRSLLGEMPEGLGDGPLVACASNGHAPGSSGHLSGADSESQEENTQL

These molecules were tested against 1-phosphatidylinositol 4,5-bisphosphate phosphodiesterase beta-3 (Homo sapiens) (UniProt Q01970) (assay: human PLC-beta3 inhibitors, primary screen, biochemical, fluorescence (AID 720704;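 note: 0% = median of compound wells on plate and 100% = full blocker control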)). Settings: Purified PLC-beta3, fluorogenic substrate, at 12.2 µM, stronger effect = higher value.

Row | Compound | inhibition
1 | O=C(Nc1cc([As](=O)(O)O)ccc1O)c1ccccc1 | inactive: -3.47%
2 | O=P1(N(CCCl)CCCl)OCCCS1 (centres undefined) | inactive: 0.74%
3 | O=C(O)CNc1ccc([As](=O)(O)O)cc1 | inactive: -4.58%
4 | O=[N+]([O-])c1cccc(NC2=NCC(CBr)S2)c1 (centres undefined) | inactive: -2.19%
5 | COC(=O)C1(C)COP(=O)(Nc2ccccc2)OC1 (centres undefined) | inactive: 2.84%
6 | O=[N+]([O-])c1ncn(CCn2ncnc2[N+](=O)[O-])n1 | inactive: 4.44%
7 | CC(C)(C)C(=O)NC(Sc1ccncn1)C(Cl)(Cl)Cl (centres undefined) | inactive: -4.59%
8 | CCc1nc2c(n1)c1c(non1O)c1c2no[n+]1[O-] | inactive: 0.85%
9 | O=[N+]([O-])c1cc([N+](=O)[O-])c(CCNc2ccccc2)c([N+](=O)[O-])c1 | inactive: 2.16%
10 | Cc1ccc(NP(=O)(Oc2ccccc2)Oc2ccccc2)nc1 | inactive: -5.36%
11 | O=[N+]([O-])c1cccc2n[nH]nc12 | inactive: -1.55%
12 | CC(=O)N1C2C3N(C(C)=O)C1C1N(C(C)=O)C(C(N1C(C)=O)N3C(C)=O)N2C(C)=O | inactive: 0.74%
13 | COc1ccc(C2=NCC(CBr)S2)cc1 (centres undefined) | inactive: -7.55%
14 | c1cc(-c2nn[nH]n2)ccc1-c1nn[nH]n1 | inactive: 2.87%
15 | CC1CCN(C(=O)Oc2c(Cl)cc(Cl)c3cccnc23)CC1 | inactive: 0.08%
16 | CN(C)C(=O)OCCc1n(C)cc[n+]1C | inactive: 4.96%
17 | CC(C)=N/N=C(\N)N[N+](=O)[O-] | inactive: -0.02%
18 | CC(C)c1nc(Nc2ccccc2)n(P(=O)(N(C)C)N(C)C)n1 | inactive: 5.86%
19 | CCN(/C(=N/P(=O)(N1CCOCC1)N1CCOCC1)N1CCOCC1)c1ccc(OC)cc1 | inactive: 5.95%
20 | C[N+]1=C2C=CC=CC=C2SC12C([N+](=O)[O-])=CC([N+](=O)[O-])=C[C-]2[N+](=O)[O-] (centres undefined) | inactive: -6.99%
21 | Nc1ccc([As](=O)(O)c2ccc(N)cc2)cc1 | inactive: -6.54%
22 | Clc1ccc(Cl)c(NC2=NCC(CBr)S2)c1 (centres undefined) | inactive: -1.77%

Row | Compound | inhibition
23 | CN1CCCC(OC(=O)C(c2ccccc2)c2ccccc2)C1 (centres undefined) | inactive: 1.25%
24 | Cc1ccc(OP(=O)(Nc2nccs2)Oc2ccc(C)cc2)cc1 | inactive: -8.06%
25 | COc1ccccc1OP(=O)(Nc1ccc(C)cn1)Oc1ccccc1OC | inactive: 1.35%
26 | Cc1ccc(N/C(=N/P(=O)(N2CCOCC2)N2CCOCC2)N2CCOCC2)cc1 | inactive: -5.11%
27 | CN(C(=O)Cc1ccc(Cl)c(Cl)c1)[C@H]1CCCC[C@H]1N1CCCC1 | inactive: 3.93%
28 | NC(=O)c1cc([N+](=O)[O-])cc([N+](=O)[O-])c1N | inactive: -3.39%
29 | O=C(NC(Sc1ccncn1)C(Cl)(Cl)Cl)c1ccccc1 (centres undefined) | inactive: 1.15%
30 | Oc1ccccc1CNc1ccccn1 | inactive: -0.86%
31 | CC(C)CC(=O)NC(Sc1ccc(Cl)cc1)C(Cl)(Cl)Cl (centres undefined) | inactive: -1.71%
32 | Nc1cc(N)c2nonc2c1[N+](=O)[O-] | inactive: -11.3%
33 | CCn1c(=O)n(C2CCN(CC3CCCCCCC3)C[C@H]2CO)c2ccccc21 (some centres undefined) | inactive: 2.06%
34 | Cc1ccc(NP(=O)(Oc2ccccc2F)Oc2ccccc2F)nc1 | inactive: -5.85%
35 | CN(C(=O)Cc1ccc(Cl)c(Cl)c1)[C@H]1CCCC[C@@H]1N1CCCC1 | inactive: -3.1%
36 | CCOP(=O)(Nc1ccccc1)OCC | inactive: -0.13%
37 | Cc1cc(SC(NC(=O)c2ccc(F)cc2)C(Cl)(Cl)Cl)ncn1 (centres undefined) | inactive: 4.49%
38 | CN(C)P(=O)(N(C)C)n1c(Nc2ccccc2)nnc1-c1ccccc1 | inactive: -0.58%
39 | O=P(Nc1nc2ccc(Cl)cc2s1)(c1ccccc1)c1ccccc1 | inactive: -6.14%
40 | CCCC1OP(N)(=O)OCC1CC (centres undefined) | inactive: 5.24%
41 | O=C(O)c1ccccc1[As](=O)(O)O | inactive: -1.26%
42 | CC(=O)Nc1ccc([As](=O)(O)O)cc1 | inactive: -4.54%
43 | CCN(N=Nc1nonc1N)c1nonc1N | inactive: 4.64%
44 | CN(C(=O)Cc1ccccc1)C1CC[C@@]2(CCCO2)C[C@@H]1N1CCCC1 (some centres undefined) | inactive: -7.25%

Row | Compound | inhibition
45 | O=P1(N(CCCl)CCCl)OCCC2CCCCN21 (centres undefined) | inactive: 5.98%
46 | Cc1ccc(NP(=O)(Oc2cccc(C)c2)Oc2cccc(C)c2)nc1 | inactive: -4.97%
47 | c1ccc(-c2nn[nH]n2)c(-c2nn[nH]n2)c1 | inactive: 1.88%
48 | CCNC(=S)/N=C(\N)N[N+](=O)[O-] | inactive: 1.97%
49 | O=C(NC1CCS(=O)(=O)C1)NP(=S)(Oc1ccccc1)Oc1ccccc1 (centres undefined) | inactive: -2.83%
50 | CN(C)C(=O)Oc1noc2ccccc12 | inactive: -1.05%
51 | O=c1c2cc([N+](=O)[O-])ccc2[nH]c2c([N+](=O)[O-])cc([N+](=O)[O-])cc12 | inactive: -2.2%
52 | Cc1ccccc1OP(=O)(Nc1ccccn1)Oc1ccccc1C | inactive: -8.48%
53 | CC(NC(=O)COC(=O)C(O)(c1ccccc1)c1ccccc1)c1ccccc1 (centres undefined) | inactive: -2.72%
54 | CCC(=O)N1C2C3N(C(=O)CC)C1C1N(C(=O)CC)C(C(N1C(=O)CC)N3C(=O)CC)N2C(=O)CC | inactive: -0.64%
55 | O=C(OC1CN2CCC1CC2)c1ccccc1 (centres undefined) | inactive: -10%
56 | Cc1ccc(OP(=O)(Nc2ccccn2)Oc2ccc(C)cc2)cc1 | inactive: 2.3%
57 | CC(=O)NC(SC(=S)N(CC(C)C)CC(C)C)C(Cl)(Cl)Cl (centres undefined) | inactive: 0.76%
58 | COC(=O)c1cc2c(s1)N=C(c1ccccc1)N(C)P2(=O)N1CCOCC1 (centres undefined) | inactive: -5.15%
59 | CC(C)(C)C(=O)NC(Sc1ccccc1)C(Cl)(Cl)Cl (centres undefined) | inactive: -5.03%
60 | CCc1cc(O)c([N+](=O)[O-])c(C)c1[N+](=O)[O-] | inactive: -0.35%
61 | CCOc1ccc(C2=NCC(CBr)S2)cc1 (centres undefined) | inactive: 1.19%
62 | O=P1(Nc2nc3ccc(Cl)cc3s2)COc2ccccc2O1 (centres undefined) | inactive: -0.45%
63 | CC(=O)Nc1ccc(Oc2c([N+](=O)[O-])cc([N+](=O)[O-])cc2[N+](=O)[O-])cc1 | inactive: -0.82%
64 | CC(=O)Nc1ccc([As](=O)(O)O)c(O)c1 | inactive: -1.39%
